Results taken from ChEMBL document CHEMBL1127907, “Design of a potent 5-HT4 receptor agonist with nanomolar affinity” (Bioorg Med Chem Lett, 1994).

Protein sequences, listed by entry. Tags and fused reporters are not part of them. Lines headed by an entry give the natural chain unless they say otherwise; changes in a name come on top.
UniProt O70528: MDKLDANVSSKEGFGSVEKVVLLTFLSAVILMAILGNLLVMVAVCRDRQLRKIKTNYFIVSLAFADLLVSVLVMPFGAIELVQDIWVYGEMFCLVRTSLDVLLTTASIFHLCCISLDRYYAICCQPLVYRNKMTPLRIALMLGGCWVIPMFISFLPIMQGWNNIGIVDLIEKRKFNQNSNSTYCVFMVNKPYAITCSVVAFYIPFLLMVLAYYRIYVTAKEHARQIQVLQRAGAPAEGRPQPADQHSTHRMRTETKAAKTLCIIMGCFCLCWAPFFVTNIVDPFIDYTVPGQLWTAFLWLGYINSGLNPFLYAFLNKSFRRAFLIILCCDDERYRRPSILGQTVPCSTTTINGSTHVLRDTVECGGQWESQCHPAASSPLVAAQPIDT
UniProt Q62758: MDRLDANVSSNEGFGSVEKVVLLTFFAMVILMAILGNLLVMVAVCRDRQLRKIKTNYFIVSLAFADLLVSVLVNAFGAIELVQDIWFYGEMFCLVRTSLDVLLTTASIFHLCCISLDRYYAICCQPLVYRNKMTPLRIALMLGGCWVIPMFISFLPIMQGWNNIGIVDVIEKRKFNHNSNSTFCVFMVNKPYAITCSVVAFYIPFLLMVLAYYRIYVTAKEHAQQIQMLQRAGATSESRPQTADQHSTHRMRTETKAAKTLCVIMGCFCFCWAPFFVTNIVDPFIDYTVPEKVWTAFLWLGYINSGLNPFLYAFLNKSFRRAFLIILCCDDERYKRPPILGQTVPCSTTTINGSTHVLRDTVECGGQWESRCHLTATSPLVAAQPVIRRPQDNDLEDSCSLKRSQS

Tests used:
[1] = molecular target: T1, 5-hydroxytryptamine receptor 4 (Cavia porcellus, UniProt O70528); experiment: 5-hydroxytryptamine 4 receptor agonist activity as increased response to electrical stimulation in guinea pig ileum
[2] = molecular target: 5-hydroxytryptamine receptor 4 (Rattus norvegicus, UniProt Q62758); experiment: Binding affinity against 5-hydroxytryptamine 4 receptor using [3H]GR-113808 as radioligand in rat striatum
[3] = molecular target: T1, 5-hydroxytryptamine receptor 4; experiment: 5-hydroxytryptamine 4 receptor antagonist activity expressed as the concentration which produced a 50% reduction of 5-HT induced contraction in guinea pig ileum

SMILES | pEC50 [1] | pKi [2] | pIC50 [3]
COc1cc(N)c(Cl)cc1C(=O)O[C@@H]1CN2CCC1CC2 | 6.82 | 7.04 | 6.35
COc1cc(N)c(Cl)cc1C(=O)O[C@H]1CN2CCC1CC2 | 6.96 | 6.31 | 7.52

pEC50, pIC50, pKi: −log10 of the molar value.
